Source: PMC9619402 (Journal of Medicinal Chemistry, 2022)

Chains of the proteins cited; added tags and fusions are not shown. Lines headed by an entry give the natural chain unless they say otherwise; changes in a name come on top. Residues count along the entry.
UniProt P53667, 330-637: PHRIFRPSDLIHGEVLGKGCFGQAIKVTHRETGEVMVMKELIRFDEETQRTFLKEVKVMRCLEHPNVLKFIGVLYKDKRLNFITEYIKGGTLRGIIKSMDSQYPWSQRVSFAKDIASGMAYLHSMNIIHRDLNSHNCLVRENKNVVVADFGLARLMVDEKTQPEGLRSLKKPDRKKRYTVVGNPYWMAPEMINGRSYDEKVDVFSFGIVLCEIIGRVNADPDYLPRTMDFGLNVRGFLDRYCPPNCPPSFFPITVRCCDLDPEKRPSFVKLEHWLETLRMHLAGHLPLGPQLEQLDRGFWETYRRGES
UniProt P53671: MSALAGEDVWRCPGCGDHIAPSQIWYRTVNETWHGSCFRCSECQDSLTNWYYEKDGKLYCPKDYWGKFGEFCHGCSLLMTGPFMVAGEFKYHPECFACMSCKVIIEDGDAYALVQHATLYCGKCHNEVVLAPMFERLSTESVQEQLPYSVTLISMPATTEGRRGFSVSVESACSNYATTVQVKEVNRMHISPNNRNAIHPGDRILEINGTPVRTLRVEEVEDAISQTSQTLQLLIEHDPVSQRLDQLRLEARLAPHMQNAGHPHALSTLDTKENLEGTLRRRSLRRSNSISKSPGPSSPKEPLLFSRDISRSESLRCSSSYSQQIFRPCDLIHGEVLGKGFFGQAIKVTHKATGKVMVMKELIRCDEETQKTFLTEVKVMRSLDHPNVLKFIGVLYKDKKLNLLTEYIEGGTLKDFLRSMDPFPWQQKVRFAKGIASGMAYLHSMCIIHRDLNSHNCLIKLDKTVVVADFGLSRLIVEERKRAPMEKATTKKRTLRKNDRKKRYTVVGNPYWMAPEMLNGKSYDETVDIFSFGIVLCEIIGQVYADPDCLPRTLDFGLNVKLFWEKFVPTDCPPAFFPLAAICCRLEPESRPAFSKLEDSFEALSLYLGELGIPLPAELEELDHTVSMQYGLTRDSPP

Columns and labels:
[1] = cited from earlier work
[2] = molecular target: T1, LIMK1 (NanoLuc LIMK1 kinase fusion) (Homo sapiens, UniProt P53667); type: cell-based; details: HEK293 cells, 2 h; mean ± SEM
T1 construct: host or cells: HEK293
Description: (§1) HEK293 cells were resuspended in growth media following routine trypsinization, neutralization, and sedimentation techniques. Cell density was adjusted to 1 ×10^5 cells/mL for each transfection in a total of 25 mL media. The transfection mix was added directly to the cells and mixed gently by inversion. The cells were then plated into T-75 tissue culture flasks and incubated for 20 h.
(§2) Kit components were purchased from Promega (Hampshire, U.K.). […] NanoBRET Tracer #10 (27.5 μL) was diluted in 192.5 μL of DMSO for use as a positive control, which was further diluted with 880 μL of tracer dilution buffer. For negative control, 20 μL of DMSO was added to 80 μL of tracer dilution buffer. LIMK1/2-transfected HEK293 cells were trypsinized, centrifuged, and resuspended in 10 mL of Opti-MEM. Extracellular NanoLuc inhibitor was added at 1:10,000 dilution to the cells, after which 85 μL of cells/well were plated into flat-bottomed, white, 96-well plates. For positive control wells, 5 μL of NanoBRET Tracer #10 was added to wells without compound. For negative controls, the DMSO/tracer dilution buffer solution was added to wells without compound. For test compounds, 10 μL of diluted compounds from the intermediate plate were added in duplicate or DMSO (for control wells) at a final concentration of 0.5% DMSO in Opti-MEM. Plates were incubated at 37 °C and 5% CO2 for 2 h. […]

[3] = molecular target: T2, LIMK2 (NanoLuc LIMK2 kinase fusion) (Homo sapiens, UniProt P53671); type: cell-based; details: HEK293 cells, 2 h; mean ± SEM
T2 construct: host or cells: HEK293
Description: as §1, §2

[4] = molecular target: LIMK1 (LIMK1_330–637, kinase catalytic domain) (Homo sapiens, UniProt P53667)
[5] = molecular target: PAK pLIMK1 (PAK-phosphorylated LIMK1) (Homo sapiens, UniProt P53667); assay: RapidFire mass spectrometry kinase assay, PAK-phosphorylated LIMK1; details: 5 nM LIMK1 + 0.4 nM PAK1 kinase domain; mean ± SEM

In the case of `Cc1c[nH]c2ncnc(N3CCN(C(=O)Nc4cccc(OC(=O)N(C)C)c4)[C@@H](C)C3)c12` [Compound 6], the aqueous stability [1] is given as “aqueous instability”.
With `Cc1c[nH]c2ncnc(-c3ccc(NC(=O)N(CCO)c4ccccc4)cc3)c12` [Compound 8] the “NanoBRET pIC50 LIMK1” value [2] was 6.13 ± 0.15, the “NanoBRET pIC50 LIMK2” value [3] was 6.26 ± 0.09 and the “RapidFire pIC50 LIMK1” value [4] was 6.43 ± 0.36. For the same compound, the “RapidFire pIC50 PAK pLIMK1” value [5] was 5.69 ± 0.19.
